The data set deals with uninephrectomized anesthetized rats, renal ischemia/reperfusion hypertension. The data set can be described thus: Model of acute angiotensin-mediated renal hypertension in anesthetized rats (Example I). Conditions: time 125 min, 5 min after reperfusion, at drug administration (reference value); mean ± S.E.M.

`NCCCC[C@H](N[C@@H](CCc1ccccc1)C(=O)O)C(=O)N1CCC[C@H]1C(=O)O` [lisinopril]: the HR stood at 398.3 ± 18.8 beats/min.

These data come from patent US20050101640A1 (Recordati Ireland Limited, priority 2002, published 2005).
